Data from PMC7466159, “Anti-Metastasis Fascin Inhibitors Decrease the Growth of Specific Subtypes of Cancers” (Cancers, 2020).

System: classical Hodgkin lymphoma cells including L-1236, L428, KM-H2, HDLM-2, U-HO1, and SUP-HD1 cells
Assay: Cell growth of classical Hodgkin lymphoma cells in culture
Type: cell-based
Settings: different concentrations

With `Cc1occc1C(=O)Nc1nn(Cc2ccc(C(F)(F)F)cc2)c2ccccc12` [NP-G2-044] the “effect on cell growth” value was “did not observe an inhibitory effect”.
